Screening results as filed in PubChem BioAssay.
iPSC survival up: enhancers of single-cell hiPSC survival, primary screen, ATPlite luminescence | actives 0.044% (n = 360,000) | AID 602274, 2012 | 100% = ROCK inhibitor wells, 0% = DMSO | survival enhancement, % at 20 µM; in the data active means survival enhancement above about 18%;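 further: cells exposed to compounds for 16 hours before the ATP read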
Statin myotox sup: suppressors of statin myotoxicity in C2C12 myotubes, primary screen, cell-based, single point, plate reader; C2C12 myotubes + simvastatin, ATP luminescence, 48 h; scaled: DMSO 0, geranylgeraniol control 100; rescue of ATP level, % at 7.49 µM; actives 0.78% (n = 330,000); AID 602340, 2012;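 active means mean ATP rescue above about 67%, or every replicate alone reaching that limit, limit read from the data, passing the limit was not always enough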;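 further: myotubes were challenged with 10 µM simvastatin during compound exposure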
PGC1a acetyl inh: inhibitors of PGC1a acetylation signal, primary screen, cell-based, U2OS, AlphaScreen, inhibitor mode | AlphaScreen anti-acetyl-lysine; with virally co-expressed GCN5 acetyltransferase | inhibition, % at 15.6 µM | actives 0.17% (n = 350,000) | AID 651687, 2012;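 active means every replicate shows inhibition of at least 40%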
Yeast UUG start: alters start codon recognition fidelity in yeast. S. cerevisiae UUG-firefly luciferase reporter, luminescence/redox ratio. activity score, % at 18.7 µM. 0.13% of 350,000 active. AID 602363;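 active = replicate mean at a twofold rise or more, about +100% in these data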;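 also: firefly luciferase made from a UUG start codon reports start codon fidelity; reporter light over untreated wells divided by growth signal over untreated wells; some hits fall short of that in this replicate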
FN deposit inh: inhibitors of fibronectin matrix deposition, primary screen, AH1F cells, Alexa488-fibronectin fluorescence, plate reader; AH1F fibroblasts, overnight; inhibition, % at 12.6 µM; actives 0.086% (n = 350,000);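 active means mean inhibition across replicates of 30% or more, regardless of how many single replicates reach that level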
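Assay system: AH1F fibroblasts / Quantity: 10000 cells per well / Medium: DMEM plus 2% serum, read in PBS / Reagent: labelled fibronectin 24 nM / Dosing: single dose, pinned / Times: 1 h cell attachment, overnight exposure to compound and label / Signal: fluorescence, ex 485 nm, em 525 nm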
Hits are given with their value. Only some compounds are listed: those with a hit (about 0.91% of all), similar ones and a draw of the others.

Screening Fc1cnc(N2CCN(c3ccccc3)CC2)nc1N1CCN(c2ccccc2)CC1 returned iPSC survival up inactive and FN deposit inh 30.
C[C@@H]1CCCCO[C@@H](CN(C)C(=O)Nc2cccc3ccccc23)[C@H](C)CN([C@H](C)CO)C(=O)c2cc(NS(=O)(=O)c3cccs3)ccc2O1 was read as Statin myotox sup 108 and Yeast UUG start inactive.
`C[C@@H]1CN([C@@H](C)CO)C(=O)c2cc(NS(=O)(=O)c3cccs3)ccc2O[C@@H](C)CCCCO[C@@H]1CN(C)C(=O)Nc1ccc2c(c1)OCO2` gave Statin myotox sup inactive, PGC1a acetyl inh inactive and Yeast UUG start inactive.
For C[C@@H]1CCCCO[C@@H](CN(C)C(=O)Nc2cccc3ccccc23)[C@@H](C)CN([C@H](C)CO)C(=O)c2cc(NS(=O)(=O)c3ccc(Cl)cc3)ccc2O1 the results were Statin myotox sup 94, PGC1a acetyl inh inactive, Yeast UUG start inactive and FN deposit inh inactive.
For C[C@H]1CCCCO[C@@H](CN(C)C(=O)Nc2ccc3c(c2)OCO3)[C@@H](C)CN([C@@H](C)CO)C(=O)c2cc(NS(=O)(=O)c3cccs3)ccc2O1 the results were Statin myotox sup 84, PGC1a acetyl inh inactive, Yeast UUG start inactive and FN deposit inh inactive.
Screening O=C(c1cccnc1)N1CC[C@H]2[C@H](CO)Nc3ccc(-c4ccccc4)cc3[C@H]21 returned Statin myotox sup inactive, PGC1a acetyl inh inactive, Yeast UUG start inactive and FN deposit inh inactive.
Screening COc1ccc(OC)c2c1C(=O)C(Cl)=C(Cl)C2=O returned iPSC survival up inactive, PGC1a acetyl inh inactive, Yeast UUG start inactive and FN deposit inh 60.
Screening COc1ccc(OC)c2c1C(=O)c1ccccc1C2=O returned FN deposit inh inactive.
`Clc1c(-c2ccccc2)nc2ccccn12` gave iPSC survival up inactive, Statin myotox sup inactive, PGC1a acetyl inh inactive, Yeast UUG start inactive and FN deposit inh inactive.
Screening c1ccn2c(c1)nc1c2nc2ccccn21 returned iPSC survival up inactive, Statin myotox sup 168, PGC1a acetyl inh inactive, Yeast UUG start inactive and FN deposit inh inactive.
`C=C1CCN(c2ccc(C(=O)NCc3ccc(C)cc3)cc2[N+](=O)[O-])CC1` gave iPSC survival up inactive, Statin myotox sup 120, PGC1a acetyl inh inactive, Yeast UUG start inactive and FN deposit inh inactive.
Screening O=C(Nc1ccccc1C(=O)N1CCOCC1)c1ccc(F)cc1 returned iPSC survival up inactive, Statin myotox sup 86, PGC1a acetyl inh inactive and Yeast UUG start inactive.
`COc1ccc(CN(C)C[C@H]2Oc3ccc(NC(=O)NC4CCCCC4)cc3CC(=O)N([C@H](C)CO)C[C@H]2C)cc1` gave Statin myotox sup inactive and PGC1a acetyl inh inactive.
For Nc1nnc(-c2ccccc2)c(-c2ccccc2)n1 the results were iPSC survival up inactive, Statin myotox sup 121, PGC1a acetyl inh inactive, Yeast UUG start inactive and FN deposit inh inactive.
Screening Cc1ccc(-c2nnc(-c3ccccc3)c(-c3ccccc3)n2)cc1 returned iPSC survival up inactive, Yeast UUG start inactive and FN deposit inh inactive.
O=C(CSc1nc2ccccc2s1)N/N=C/c1ccc(C(=O)O)cc1 was read as iPSC survival up inactive and FN deposit inh 35.
For O=C(CSc1nc2ccccc2s1)N/N=C/c1ccccc1C(=O)O the results were iPSC survival up inactive, Statin myotox sup inactive, PGC1a acetyl inh inactive, Yeast UUG start inactive and FN deposit inh inactive.
COC(=O)C[C@@H]1C[C@H]2c3cc(NS(=O)(=O)c4ccc(OC)cc4)ccc3O[C@H]2[C@H](CO)O1 was read as Statin myotox sup inactive, PGC1a acetyl inh inactive, Yeast UUG start inactive and FN deposit inh inactive.
COc1ccccc1Oc1ccc2c(c1)C(=O)N(CC(=O)O)C2=O was read as iPSC survival up inactive, Statin myotox sup inactive and Yeast UUG start inactive.
`COc1ccccc1Oc1ccc2c(c1)C(=O)N(c1ccc(O)cc1)C2=O` gave iPSC survival up inactive, Statin myotox sup 128, PGC1a acetyl inh inactive and Yeast UUG start inactive.
O=S(c1ccc2ccccc2c1)c1cnns1 (stereo unspecified) was read as iPSC survival up inactive, Statin myotox sup 124, PGC1a acetyl inh inactive and Yeast UUG start inactive.
For CO[C@@H]1CN(C)C(=O)c2cc(NC(=O)NC(C)C)ccc2OC[C@H](C)N(Cc2ccc(-c3ccccn3)cc2)C[C@@H]1C the results were Statin myotox sup inactive, PGC1a acetyl inh inactive, Yeast UUG start inactive and FN deposit inh inactive.
Screening Cc1noc(C)c1NC(=O)N(C)C[C@H]1Oc2ccc(NS(=O)(=O)c3c(C)noc3C)cc2C(=O)N([C@@H](C)CO)C[C@@H]1C returned PGC1a acetyl inh inactive.
`O=C1c2ccccc2NC2(CCCCC2)N1c1ccc(O)cc1` gave iPSC survival up inactive, Statin myotox sup 137, PGC1a acetyl inh inactive and Yeast UUG start inactive.
For CC(Oc1ccccc1)C(=O)Nc1nc(-c2ccncc2)cs1 (stereo unspecified) the results were iPSC survival up 25, Statin myotox sup inactive, Yeast UUG start inactive and FN deposit inh inactive.
`CC(C)CC#Cc1ccc2c(c1)O[C@@H](CN(C)C(=O)CN(C)C)[C@H](C)CN([C@@H](C)CO)S2(=O)=O` gave Statin myotox sup inactive, PGC1a acetyl inh inactive, Yeast UUG start inactive and FN deposit inh inactive.
Cc1ccc(S(=O)(=O)c2c(COC(=O)c3ccccc3Cl)c(-c3ccccc3)nn2C)cc1 was read as iPSC survival up inactive, Statin myotox sup 116, PGC1a acetyl inh inactive and Yeast UUG start inactive.
C[C@@H]1CN([C@H](C)CO)C(=O)c2cc(-c3ccc(C#N)cc3)cnc2O[C@@H]1CN(C)C(=O)c1ccccc1 was read as Statin myotox sup inactive, PGC1a acetyl inh inactive, Yeast UUG start inactive and FN deposit inh inactive.
For O=C(N[C@H]1CC[C@H](CCn2cc(Cc3ccccc3)nn2)O[C@@H]1CO)c1ccccn1 the results were Statin myotox sup inactive, PGC1a acetyl inh inactive, Yeast UUG start inactive and FN deposit inh inactive.
`O=C(NCCc1ccccc1Cl)[C@@H]1CCCN1C(=O)[C@H](Cc1cccnc1)NC(=O)N1CCOCC1` gave FN deposit inh inactive.
`COc1cccc2c1C(=O)c1c(O)c3c(c(O)c1C2=O)C[C@@](O)(C(C)=O)C[C@@H]3O[C@H]1C[C@H](N)[C@H](O)[C@H](C)O1` gave iPSC survival up inactive, Statin myotox sup inactive, PGC1a acetyl inh 51, Yeast UUG start inactive and FN deposit inh inactive.
For COc1cccc2c1C(=O)c1c(O)c3c(c(O)c1C2=O)C[C@@](O)(C(=O)CO)C[C@@H]3O[C@H]1C[C@H](N)[C@@H](O)[C@H](C)O1 the results were iPSC survival up inactive, Statin myotox sup inactive, PGC1a acetyl inh inactive and Yeast UUG start inactive.
